Among the data in patent US20230374035A1, “RAS INHIBITORS” (Revolution Medicines, Inc., priority 2019, published 2023) are EC50 and IC50 values, retold here.

Test [1] relates to AsPC-1 (K-Ras G12D). Briefly: Potency assay: pERK. The conditions noted are these: read-out: ASPC-1 pERK EC50.
For test [2], the system named is Capan-1 (K-Ras G12V). The test is described as follows: Potency assay: pERK. Particulars: read-out: Capan-1 pERK EC50.
For test [3], the system named is NCI-H358 (K-Ras G12C). The test is described as follows: CellTiter-Glo Cell Viability Assay. Particulars: read-out: H358 Cell Viability IC50; H358, 5-day treatment. A general note: In ATP-based viability assays light output follows the ATP content of the culture.

The term EC50 denotes the concentration needed to bring the measured effect to its halfway point. The term IC50 denotes the point on the concentration scale where inhibition reaches its midpoint. For the compound `CCn1c(-c2cccnc2[C@H](C)OC)c2c3cc(ccc31)-c1cc(O)cc(c1)C[C@H](NC(=O)[C@H](C(C)C)N(C)C(C)=O)C(=O)N1CCC[C@H](N1)C(=O)OCC(C)(C)C2`, the EC50 in test [1] worked out at 706 nM; in test [2], 52 nM. In addition, the IC50 in test [3] amounted to 226 nM.
